Source: patent US9012651B2, “TRPV3 modulators” (AbbVie Inc., priority 2011, dated 2015)

Protein sequences, listed by entry. Tags and fused reporters are not part of them. Lines headed by an entry give the natural chain unless they say otherwise; changes in a name come on top.
UniProt Q8NET8: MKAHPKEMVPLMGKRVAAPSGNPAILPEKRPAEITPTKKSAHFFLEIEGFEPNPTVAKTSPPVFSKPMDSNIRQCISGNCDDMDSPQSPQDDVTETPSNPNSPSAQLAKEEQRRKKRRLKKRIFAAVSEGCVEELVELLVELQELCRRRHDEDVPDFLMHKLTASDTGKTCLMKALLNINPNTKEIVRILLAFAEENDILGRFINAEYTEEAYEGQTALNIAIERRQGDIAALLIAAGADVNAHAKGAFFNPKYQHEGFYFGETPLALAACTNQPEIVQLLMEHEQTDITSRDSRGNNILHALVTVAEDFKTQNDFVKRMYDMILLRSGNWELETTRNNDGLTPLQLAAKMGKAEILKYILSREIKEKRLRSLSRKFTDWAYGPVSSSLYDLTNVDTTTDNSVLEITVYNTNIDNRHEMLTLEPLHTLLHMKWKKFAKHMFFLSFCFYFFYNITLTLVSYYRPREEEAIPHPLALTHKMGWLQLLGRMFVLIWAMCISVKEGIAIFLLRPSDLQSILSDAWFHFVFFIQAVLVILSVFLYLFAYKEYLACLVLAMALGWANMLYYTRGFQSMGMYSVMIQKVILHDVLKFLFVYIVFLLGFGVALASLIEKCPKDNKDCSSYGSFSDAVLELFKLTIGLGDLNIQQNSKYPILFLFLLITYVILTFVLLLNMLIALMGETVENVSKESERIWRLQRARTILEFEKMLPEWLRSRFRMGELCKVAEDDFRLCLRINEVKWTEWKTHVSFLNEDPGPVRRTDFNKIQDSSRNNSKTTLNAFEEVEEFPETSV

Target: human TRPV3 receptors (Homo sapiens (Human), UniProt Q8NET8)
Test: Calcium flux assay (FLIPR TETRA), inhibition of the 2-APB response
Type: cell-based
Settings: recombinant HEK293 cells stably expressing TRPV3, Calcium-4 dye, 2-APB at its EC80
Method: (i) In Vitro Methods-Calcium Flux Assays:
Experiments were conducted using the FLIPR^TETRA®. On the day prior to the experiment, recombinant HEK293 cells that stably express human and mouse TRPV3 were removed from tissue culture flasks and plated in growth medium at 20,000 cells/well into black-walled clear-bottom 384-well Biocoat™ poly-D-lysine assay plates (BD Biosciences, Bedford, Mass.) using a Multidrop® dispenser (ThermoScientific, Waltham, Mass.). […] Cells were incubated for 90-120 minutes in the dark. Compounds were dissolved in DMSO to prepare a 10 mM stock solution. The intensity of the fluorescence was captured and digitally transferred to an interfaced PC. The peak increase in fluorescence over baseline (relative fluorescence units) was calculated and expressed as the percentage of the maximal 2-APB (2-aminoethoxyldiphenyl borate) response (in the absence of compound).

| IC50 [nM] | SMILES |
| --- | --- |
| 3250 | O[C@H]1CCCC[C@H]1NCc1cccc(-c2ccc(C(F)(F)F)cc2)n1 [Example 7, (1S,2R)-2-[({6-[4-(trifluoromethyl)phenyl]pyridin-2-yl}methyl)amino]cyclohexanol] |
| 410 | CC(C)[C@H](CO)NCc1nc(-c2ccc(Cl)s2)ccc1F [Example 242, (2R)-2-({[6-[5-chlorothiophen-2-yl)-3-fluoropyridin-2-yl]methyl}amino)-3-methylbutan-1-ol] |
| 1520 | CC(C)[C@H](CO)NCc1nc(-c2ccc3scnc3c2)ccc1F [Example 234, (2R)-2-({[6-[1,3-benzothiazol-5-yl)-3-fluoropyridin-2-yl]methyl}amino)-3-methylbutan-1-ol] |
| 3000 | O[C@@H]1CCCC[C@@H]1NCc1cccc(-c2ccc(C(F)(F)F)cc2)n1 [Example 4, (1R,2S)-2-[({6-[4-(trifluoromethyl)phenyl]pyridin-2-yl}methyl)amino]cyclohexanol] |
